The record followed here is ChEMBL document CHEMBL5584345, “Discovery of Novel 2-Aminopyridine-Based and 2-Aminopyrimidine-Based Derivatives as Potent CDK/HDAC Dual Inhibitors for the Treatment of Refractory Solid Tumors and Hematological Malignancies” (J Med Chem, 2024).

The chains behind the UniProt entries cited, without tags or fusion partners. Where a name states a change or a piece, a line headed by the entry shows the natural chain unless it says otherwise.
UniProt P36888, whole entry: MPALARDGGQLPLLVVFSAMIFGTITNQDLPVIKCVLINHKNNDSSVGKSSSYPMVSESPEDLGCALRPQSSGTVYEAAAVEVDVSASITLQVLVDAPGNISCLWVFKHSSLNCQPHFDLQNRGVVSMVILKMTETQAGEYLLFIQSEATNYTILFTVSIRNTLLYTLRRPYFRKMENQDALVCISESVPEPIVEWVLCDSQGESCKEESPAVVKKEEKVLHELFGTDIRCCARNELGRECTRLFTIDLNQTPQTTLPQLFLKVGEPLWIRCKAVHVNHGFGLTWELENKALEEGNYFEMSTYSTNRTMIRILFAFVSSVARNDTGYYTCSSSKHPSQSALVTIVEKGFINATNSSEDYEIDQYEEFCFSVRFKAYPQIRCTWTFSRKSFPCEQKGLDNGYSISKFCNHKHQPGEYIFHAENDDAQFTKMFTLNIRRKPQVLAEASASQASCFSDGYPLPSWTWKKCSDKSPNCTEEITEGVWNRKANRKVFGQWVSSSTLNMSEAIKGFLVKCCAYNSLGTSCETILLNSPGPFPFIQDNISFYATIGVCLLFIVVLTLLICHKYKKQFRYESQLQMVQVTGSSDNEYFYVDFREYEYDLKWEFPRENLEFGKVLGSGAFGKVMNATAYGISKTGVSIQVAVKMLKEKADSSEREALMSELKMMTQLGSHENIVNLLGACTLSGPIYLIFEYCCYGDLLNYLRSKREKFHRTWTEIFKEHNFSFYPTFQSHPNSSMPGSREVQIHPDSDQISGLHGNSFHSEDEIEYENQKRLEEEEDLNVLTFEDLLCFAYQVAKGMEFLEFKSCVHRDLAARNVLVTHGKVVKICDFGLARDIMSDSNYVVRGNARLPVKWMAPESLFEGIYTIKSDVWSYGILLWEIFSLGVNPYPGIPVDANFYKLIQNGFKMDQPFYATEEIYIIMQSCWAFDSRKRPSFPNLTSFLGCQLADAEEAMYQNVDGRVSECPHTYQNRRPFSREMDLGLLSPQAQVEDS
UniProt P23443: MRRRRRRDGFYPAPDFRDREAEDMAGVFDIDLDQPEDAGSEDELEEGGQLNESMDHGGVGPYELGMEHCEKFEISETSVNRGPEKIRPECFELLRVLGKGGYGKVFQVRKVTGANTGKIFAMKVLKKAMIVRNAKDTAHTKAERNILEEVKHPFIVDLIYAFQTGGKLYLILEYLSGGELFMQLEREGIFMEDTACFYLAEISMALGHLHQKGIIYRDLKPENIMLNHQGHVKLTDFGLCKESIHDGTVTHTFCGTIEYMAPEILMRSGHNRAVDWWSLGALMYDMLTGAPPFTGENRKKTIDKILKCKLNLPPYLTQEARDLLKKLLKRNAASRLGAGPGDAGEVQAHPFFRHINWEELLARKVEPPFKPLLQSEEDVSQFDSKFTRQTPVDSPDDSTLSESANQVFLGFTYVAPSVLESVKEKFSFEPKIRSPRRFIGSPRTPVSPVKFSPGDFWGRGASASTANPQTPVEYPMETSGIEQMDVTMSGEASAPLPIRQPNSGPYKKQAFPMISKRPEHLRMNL
UniProt Q06187: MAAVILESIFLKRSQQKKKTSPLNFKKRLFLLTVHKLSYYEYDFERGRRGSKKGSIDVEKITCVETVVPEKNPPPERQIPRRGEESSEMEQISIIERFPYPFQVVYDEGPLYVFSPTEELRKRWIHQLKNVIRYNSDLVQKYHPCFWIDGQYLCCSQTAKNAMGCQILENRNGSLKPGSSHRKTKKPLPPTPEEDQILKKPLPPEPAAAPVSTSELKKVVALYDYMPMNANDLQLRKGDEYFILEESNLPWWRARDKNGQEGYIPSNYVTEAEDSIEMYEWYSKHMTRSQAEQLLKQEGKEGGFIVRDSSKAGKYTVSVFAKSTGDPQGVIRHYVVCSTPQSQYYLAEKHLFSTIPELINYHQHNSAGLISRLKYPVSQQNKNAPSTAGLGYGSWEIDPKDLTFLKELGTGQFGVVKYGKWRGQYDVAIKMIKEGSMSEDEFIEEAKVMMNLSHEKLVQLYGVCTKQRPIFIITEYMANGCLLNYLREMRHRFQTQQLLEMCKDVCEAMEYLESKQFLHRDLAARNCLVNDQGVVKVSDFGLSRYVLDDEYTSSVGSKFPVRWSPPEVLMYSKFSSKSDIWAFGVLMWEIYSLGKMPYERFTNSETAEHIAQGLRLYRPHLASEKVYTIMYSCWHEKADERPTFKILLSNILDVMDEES
UniProt P11802: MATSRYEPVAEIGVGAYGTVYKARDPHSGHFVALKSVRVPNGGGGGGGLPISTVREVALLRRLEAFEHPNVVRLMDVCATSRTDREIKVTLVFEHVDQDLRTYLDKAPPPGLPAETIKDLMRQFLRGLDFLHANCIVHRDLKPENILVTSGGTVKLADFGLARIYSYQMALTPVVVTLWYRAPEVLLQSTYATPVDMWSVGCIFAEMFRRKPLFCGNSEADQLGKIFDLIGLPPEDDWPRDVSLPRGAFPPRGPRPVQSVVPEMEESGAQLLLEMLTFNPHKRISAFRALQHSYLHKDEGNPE
UniProt Q00534, whole entry: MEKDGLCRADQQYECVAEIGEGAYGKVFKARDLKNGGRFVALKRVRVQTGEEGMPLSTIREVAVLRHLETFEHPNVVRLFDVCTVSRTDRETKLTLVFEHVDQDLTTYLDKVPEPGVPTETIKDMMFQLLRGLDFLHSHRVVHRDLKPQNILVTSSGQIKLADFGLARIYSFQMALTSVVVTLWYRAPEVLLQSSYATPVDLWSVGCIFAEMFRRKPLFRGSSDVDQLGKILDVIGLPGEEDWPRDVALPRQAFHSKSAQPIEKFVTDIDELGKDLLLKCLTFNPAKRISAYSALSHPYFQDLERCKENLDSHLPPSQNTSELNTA
UniProt O94921: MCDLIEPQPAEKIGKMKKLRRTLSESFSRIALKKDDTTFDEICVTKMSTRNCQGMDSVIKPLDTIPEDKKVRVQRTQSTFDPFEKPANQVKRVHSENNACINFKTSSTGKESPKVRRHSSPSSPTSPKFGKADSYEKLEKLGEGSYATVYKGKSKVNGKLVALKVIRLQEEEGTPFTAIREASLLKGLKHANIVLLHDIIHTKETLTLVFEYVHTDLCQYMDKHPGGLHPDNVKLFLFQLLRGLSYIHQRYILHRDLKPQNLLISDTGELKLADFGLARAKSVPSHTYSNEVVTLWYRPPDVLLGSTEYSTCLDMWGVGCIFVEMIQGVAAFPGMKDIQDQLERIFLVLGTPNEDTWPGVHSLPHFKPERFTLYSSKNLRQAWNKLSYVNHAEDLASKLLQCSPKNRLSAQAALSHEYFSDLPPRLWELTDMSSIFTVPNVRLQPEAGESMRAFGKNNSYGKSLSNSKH
UniProt Q00536: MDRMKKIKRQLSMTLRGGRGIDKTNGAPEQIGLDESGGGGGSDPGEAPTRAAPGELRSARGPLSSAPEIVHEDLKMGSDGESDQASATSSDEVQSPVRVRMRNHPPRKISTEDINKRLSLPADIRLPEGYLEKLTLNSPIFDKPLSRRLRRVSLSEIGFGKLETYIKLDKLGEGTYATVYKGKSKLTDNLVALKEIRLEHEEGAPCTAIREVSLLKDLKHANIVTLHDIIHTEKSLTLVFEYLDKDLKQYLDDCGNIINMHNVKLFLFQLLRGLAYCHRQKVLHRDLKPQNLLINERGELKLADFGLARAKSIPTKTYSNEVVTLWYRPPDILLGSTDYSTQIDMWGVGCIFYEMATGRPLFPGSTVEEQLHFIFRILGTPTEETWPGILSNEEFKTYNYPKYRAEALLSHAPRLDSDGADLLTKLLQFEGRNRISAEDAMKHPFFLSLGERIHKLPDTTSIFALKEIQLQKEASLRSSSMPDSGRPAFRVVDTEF
UniProt Q00537: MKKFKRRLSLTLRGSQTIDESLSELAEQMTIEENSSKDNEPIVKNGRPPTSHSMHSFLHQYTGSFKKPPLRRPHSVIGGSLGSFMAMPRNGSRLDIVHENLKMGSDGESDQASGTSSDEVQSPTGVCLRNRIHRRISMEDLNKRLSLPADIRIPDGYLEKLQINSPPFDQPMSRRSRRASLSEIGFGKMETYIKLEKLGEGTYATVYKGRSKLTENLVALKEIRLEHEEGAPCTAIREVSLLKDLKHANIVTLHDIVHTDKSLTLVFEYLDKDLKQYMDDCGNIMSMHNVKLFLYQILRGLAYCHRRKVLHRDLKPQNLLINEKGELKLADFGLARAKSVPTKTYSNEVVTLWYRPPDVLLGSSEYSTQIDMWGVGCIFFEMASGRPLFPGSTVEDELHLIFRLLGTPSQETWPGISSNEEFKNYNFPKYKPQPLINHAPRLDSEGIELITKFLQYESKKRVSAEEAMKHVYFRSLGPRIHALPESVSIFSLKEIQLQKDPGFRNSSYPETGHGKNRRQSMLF
UniProt Q07002: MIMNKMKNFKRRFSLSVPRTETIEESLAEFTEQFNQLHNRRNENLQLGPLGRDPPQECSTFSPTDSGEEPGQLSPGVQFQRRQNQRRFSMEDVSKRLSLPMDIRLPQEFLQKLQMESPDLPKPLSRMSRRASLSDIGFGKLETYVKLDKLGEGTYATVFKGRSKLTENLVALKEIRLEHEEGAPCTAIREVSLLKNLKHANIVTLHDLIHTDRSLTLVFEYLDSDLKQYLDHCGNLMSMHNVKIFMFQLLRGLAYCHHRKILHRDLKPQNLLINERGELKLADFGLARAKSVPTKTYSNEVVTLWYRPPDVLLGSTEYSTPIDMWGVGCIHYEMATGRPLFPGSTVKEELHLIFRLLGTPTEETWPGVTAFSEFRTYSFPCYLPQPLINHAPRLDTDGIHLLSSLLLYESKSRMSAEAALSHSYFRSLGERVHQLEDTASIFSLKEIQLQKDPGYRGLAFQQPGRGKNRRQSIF
UniProt Q92769, whole entry: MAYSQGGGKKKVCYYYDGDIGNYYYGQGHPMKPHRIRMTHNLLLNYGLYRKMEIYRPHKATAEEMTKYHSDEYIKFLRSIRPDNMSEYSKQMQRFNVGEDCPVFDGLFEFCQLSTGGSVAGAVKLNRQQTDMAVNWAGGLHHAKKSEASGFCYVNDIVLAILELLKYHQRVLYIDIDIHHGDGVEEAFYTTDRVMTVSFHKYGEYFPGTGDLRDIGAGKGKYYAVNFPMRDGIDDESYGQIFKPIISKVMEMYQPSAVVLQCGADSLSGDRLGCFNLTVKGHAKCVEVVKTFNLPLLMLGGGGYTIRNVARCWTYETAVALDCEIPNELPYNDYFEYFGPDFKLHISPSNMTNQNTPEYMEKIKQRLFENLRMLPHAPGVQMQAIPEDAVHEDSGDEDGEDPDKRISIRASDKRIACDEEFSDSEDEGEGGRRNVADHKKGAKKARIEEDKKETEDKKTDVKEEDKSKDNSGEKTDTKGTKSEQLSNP
UniProt P56524: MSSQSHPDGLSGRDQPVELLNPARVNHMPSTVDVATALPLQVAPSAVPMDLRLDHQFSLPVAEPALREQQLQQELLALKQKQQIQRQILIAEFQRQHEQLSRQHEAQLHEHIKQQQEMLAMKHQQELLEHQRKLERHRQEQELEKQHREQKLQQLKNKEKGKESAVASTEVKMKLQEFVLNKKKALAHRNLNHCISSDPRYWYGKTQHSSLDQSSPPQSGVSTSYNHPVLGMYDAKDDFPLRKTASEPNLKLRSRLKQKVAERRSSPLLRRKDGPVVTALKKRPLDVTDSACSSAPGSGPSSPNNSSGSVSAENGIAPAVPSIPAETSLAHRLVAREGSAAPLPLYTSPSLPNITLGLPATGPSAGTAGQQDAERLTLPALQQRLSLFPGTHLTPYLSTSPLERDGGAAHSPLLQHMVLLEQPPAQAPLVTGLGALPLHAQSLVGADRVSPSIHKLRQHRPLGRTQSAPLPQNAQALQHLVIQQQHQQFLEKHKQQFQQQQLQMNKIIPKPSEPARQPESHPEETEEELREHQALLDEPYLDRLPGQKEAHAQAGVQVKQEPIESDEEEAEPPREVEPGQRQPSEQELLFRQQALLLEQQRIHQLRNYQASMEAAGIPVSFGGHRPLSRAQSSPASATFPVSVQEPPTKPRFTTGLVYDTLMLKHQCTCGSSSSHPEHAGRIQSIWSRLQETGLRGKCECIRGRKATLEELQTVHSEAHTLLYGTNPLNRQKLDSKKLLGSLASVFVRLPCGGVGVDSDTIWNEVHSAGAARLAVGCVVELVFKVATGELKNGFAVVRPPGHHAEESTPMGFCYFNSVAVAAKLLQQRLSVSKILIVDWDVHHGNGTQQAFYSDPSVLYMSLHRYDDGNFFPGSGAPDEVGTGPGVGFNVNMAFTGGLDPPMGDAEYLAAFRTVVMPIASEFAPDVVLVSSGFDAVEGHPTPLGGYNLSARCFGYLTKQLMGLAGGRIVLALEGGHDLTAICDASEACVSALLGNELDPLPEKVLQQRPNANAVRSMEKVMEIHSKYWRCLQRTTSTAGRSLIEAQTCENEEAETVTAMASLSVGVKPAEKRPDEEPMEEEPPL

The structures appear in SMILES notation. The source made the active and inactive calls. The rule behind the calls is not given here.

Experiment [1] has as its target Receptor-type tyrosine-protein kinase FLT3 (Homo sapiens, UniProt P36888). The experiment can be described thus: Inhibition of FLT3 (unknown origin) at 10 uM relative to control.
The target in experiment [2] is T1, Tyrosine-protein kinase JAK3 (Homo sapiens) (UniProt P52333).
T1 sequence (whole entry): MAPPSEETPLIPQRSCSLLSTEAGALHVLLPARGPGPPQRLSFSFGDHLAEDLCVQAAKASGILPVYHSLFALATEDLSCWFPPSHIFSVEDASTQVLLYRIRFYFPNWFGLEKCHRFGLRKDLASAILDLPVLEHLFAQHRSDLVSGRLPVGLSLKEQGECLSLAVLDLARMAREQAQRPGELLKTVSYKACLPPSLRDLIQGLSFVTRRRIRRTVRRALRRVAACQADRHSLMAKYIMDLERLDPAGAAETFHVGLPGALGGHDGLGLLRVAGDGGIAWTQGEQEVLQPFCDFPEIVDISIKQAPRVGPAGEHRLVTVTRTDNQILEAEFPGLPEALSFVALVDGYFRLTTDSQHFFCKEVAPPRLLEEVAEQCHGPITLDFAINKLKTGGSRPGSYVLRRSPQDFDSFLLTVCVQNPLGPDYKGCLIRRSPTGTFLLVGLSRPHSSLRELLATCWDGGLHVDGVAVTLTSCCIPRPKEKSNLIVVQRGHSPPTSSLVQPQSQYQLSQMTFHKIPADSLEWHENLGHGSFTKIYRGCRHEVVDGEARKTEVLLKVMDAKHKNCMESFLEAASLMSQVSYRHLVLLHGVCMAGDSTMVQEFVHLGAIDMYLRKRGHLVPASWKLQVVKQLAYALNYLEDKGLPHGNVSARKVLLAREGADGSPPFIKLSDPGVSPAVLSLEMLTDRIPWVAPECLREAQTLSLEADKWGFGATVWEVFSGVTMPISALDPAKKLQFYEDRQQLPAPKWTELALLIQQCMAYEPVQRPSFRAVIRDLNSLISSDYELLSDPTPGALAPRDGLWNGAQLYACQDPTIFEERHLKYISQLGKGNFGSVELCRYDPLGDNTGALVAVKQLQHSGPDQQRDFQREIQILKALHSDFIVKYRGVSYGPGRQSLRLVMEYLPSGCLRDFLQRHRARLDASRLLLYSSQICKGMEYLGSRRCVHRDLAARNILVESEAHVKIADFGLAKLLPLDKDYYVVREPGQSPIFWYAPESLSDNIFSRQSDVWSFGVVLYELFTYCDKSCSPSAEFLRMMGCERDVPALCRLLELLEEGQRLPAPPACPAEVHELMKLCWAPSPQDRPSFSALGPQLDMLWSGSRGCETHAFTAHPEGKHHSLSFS
The experiment can be described thus: Inhibition of JAK3 (unknown origin) at 10 uM relative to control.

For experiment [3], the target named is Epidermal growth factor receptor (Homo sapiens, UniProt P00533). The experiment in a line: Inhibition of EGFR (unknown origin) at 10 uM relative to control.
Experiment [4] addresses T2, Serine/threonine-protein kinase 17B (Homo sapiens) (UniProt O94768).
T2 sequence (whole entry): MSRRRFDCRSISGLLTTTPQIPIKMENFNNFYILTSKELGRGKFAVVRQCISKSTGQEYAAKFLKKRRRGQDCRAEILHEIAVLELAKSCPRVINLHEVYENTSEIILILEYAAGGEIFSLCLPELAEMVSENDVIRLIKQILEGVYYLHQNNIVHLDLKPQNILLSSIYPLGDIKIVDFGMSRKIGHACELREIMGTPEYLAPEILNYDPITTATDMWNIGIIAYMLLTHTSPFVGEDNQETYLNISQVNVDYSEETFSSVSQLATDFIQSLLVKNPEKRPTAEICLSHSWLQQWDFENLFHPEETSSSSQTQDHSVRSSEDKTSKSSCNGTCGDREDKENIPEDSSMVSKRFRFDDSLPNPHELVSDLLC
The experiment in a line: Inhibition of DRAK2 (unknown origin) at 10 uM relative to control.

For experiment [5], the target named is Ribosomal protein S6 kinase beta-1 (Homo sapiens, UniProt P23443). The experiment in a line: Inhibition of P70S6K (unknown origin) at 10 uM relative to control.
In experiment [6] the target is T3, Aurora kinase A (Homo sapiens) (UniProt O14965).
T3 sequence (whole entry): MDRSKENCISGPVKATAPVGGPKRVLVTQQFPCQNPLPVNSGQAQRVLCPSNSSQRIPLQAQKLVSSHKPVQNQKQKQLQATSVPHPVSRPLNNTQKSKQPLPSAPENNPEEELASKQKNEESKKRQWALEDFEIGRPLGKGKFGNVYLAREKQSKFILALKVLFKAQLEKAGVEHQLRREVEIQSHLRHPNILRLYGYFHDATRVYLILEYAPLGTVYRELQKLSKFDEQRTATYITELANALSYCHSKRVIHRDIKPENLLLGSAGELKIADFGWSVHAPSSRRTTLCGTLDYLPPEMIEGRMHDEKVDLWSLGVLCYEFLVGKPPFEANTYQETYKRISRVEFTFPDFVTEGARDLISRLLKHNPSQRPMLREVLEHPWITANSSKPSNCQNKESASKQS
The experiment in a line: Inhibition of AurorA (unknown origin) at 10 uM relative to control.

For experiment [7], the target named is Interleukin-1 receptor-associated kinase 4 (Homo sapiens, UniProt Q9NWZ3). The experiment in a line: Inhibition of IRAK4 (unknown origin) at 10 uM relative to control.
The target of experiment [8] is Tyrosine-protein kinase BTK (Homo sapiens, UniProt Q06187). The experiment can be described thus: Inhibition of BTK (unknown origin) at 10 uM relative to control.
Experiment [9] concerns the target Cyclin-dependent kinase 4 (Homo sapiens) (UniProt P11802). The experiment in a line: Inhibition of CDK4 (unknown origin) at 10 uM.
Experiment [10] addresses Cyclin-dependent kinase 6 (Homo sapiens) (UniProt Q00534). The experiment in a line: Inhibition of CDK6 (unknown origin) at 10 uM.
The target of experiment [11] is Cyclin-dependent kinase 14 (Homo sapiens) (UniProt O94921). The experiment can be described thus: Inhibition of CDK14 (unknown origin) at 10 uM.
Experiment [12] addresses Cyclin-dependent kinase 16 (Homo sapiens) (UniProt Q00536). The experiment in a line: Inhibition of CDK16 (unknown origin) at 10 uM.
The target in experiment [13] is Cyclin-dependent kinase 17 (Homo sapiens) (UniProt Q00537). The experiment can be described thus: Inhibition of CDK17 (unknown origin) at 10 uM.
The target of experiment [14] is Cyclin-dependent kinase 18 (Homo sapiens) (UniProt Q07002). The experiment in a line: Inhibition of CDK18 (unknown origin) at 10 uM.
The target of experiment [15] is Histone deacetylase 2 (Homo sapiens) (UniProt Q92769). The experiment can be described thus: Inhibition of HDAC2 (unknown origin) at 10 uM.
Another experiment concerns the target Histone deacetylase 4 (Homo sapiens, UniProt P56524). The experiment in a line: Inhibition of HDAC4 (unknown origin) at 10 uM.
The target of experiment [16] is Histone deacetylase 5 (Homo sapiens) (UniProt Q9UQL6). The experiment in a line: Inhibition of HDAC5 (unknown origin) at 10 uM.
Experiment [17] addresses T4, Histone deacetylase 7 (Homo sapiens) (UniProt Q8WUI4).
T4 sequence (whole entry): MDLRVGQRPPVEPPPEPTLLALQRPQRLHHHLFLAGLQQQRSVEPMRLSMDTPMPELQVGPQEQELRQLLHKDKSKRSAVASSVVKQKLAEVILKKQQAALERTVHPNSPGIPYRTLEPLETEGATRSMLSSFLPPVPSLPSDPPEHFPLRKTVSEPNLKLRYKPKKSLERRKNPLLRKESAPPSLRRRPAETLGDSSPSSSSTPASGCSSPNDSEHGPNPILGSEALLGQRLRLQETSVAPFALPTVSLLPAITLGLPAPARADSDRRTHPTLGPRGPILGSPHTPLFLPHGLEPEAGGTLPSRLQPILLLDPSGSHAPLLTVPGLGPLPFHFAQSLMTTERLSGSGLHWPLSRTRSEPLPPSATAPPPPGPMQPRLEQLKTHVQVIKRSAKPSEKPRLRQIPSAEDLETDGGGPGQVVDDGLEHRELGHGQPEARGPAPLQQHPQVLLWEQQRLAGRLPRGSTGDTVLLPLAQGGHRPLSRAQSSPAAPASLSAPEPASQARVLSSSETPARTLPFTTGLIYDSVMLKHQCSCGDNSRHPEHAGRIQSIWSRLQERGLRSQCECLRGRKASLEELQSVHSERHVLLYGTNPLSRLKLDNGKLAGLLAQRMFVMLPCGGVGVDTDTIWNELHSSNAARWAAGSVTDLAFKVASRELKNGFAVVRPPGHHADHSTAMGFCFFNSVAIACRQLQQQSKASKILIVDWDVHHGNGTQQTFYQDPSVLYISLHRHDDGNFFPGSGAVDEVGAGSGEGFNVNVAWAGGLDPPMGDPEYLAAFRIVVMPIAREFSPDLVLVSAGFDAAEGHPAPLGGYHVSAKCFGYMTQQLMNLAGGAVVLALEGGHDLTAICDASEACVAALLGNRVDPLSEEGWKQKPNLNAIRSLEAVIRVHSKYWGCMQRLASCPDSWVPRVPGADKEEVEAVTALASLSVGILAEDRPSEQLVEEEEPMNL
The experiment can be described thus: Inhibition of HDAC7 (unknown origin) at 10 uM.

Experiment [18] has as its target T5, Histone deacetylase 8 (Homo sapiens) (UniProt Q9BY41).
T5 sequence (whole entry): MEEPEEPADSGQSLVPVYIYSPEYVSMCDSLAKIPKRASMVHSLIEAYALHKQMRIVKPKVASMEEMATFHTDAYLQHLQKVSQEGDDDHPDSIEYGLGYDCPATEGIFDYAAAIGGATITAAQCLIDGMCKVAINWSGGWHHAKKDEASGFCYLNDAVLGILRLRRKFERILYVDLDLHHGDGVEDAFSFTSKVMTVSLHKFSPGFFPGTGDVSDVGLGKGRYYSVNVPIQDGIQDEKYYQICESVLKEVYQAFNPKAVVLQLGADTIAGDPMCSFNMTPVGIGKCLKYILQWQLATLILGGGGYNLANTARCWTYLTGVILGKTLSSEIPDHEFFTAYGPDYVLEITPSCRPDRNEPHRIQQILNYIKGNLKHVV
The experiment in a line: Inhibition of HDAC8 (unknown origin) at 10 uM.

Another experiment concerns MV4-11. The experiment can be described thus: Synergistic anticancer activity against human MV4-11 cells incubated for 72 hrs in presence of SAHA by CCK-8 assay. It is filed as functional, cell-based. A general note: Formazan colour is commonly taken as a measure of viable cells.

As usually defined, the inhibition is the drop in the measured response relative to a control, in per cent. Consider `CCCNNC(=O)c1ccc(Cn2cc(Nc3ncc(Cl)c(-c4cnc5ccccn45)n3)cn2)cc1`, for which the inhibition is 98.1% in experiment [1]; 82.3% in experiment [2]; 40.1% in [3]; 13.2% in experiment [4]; 48.4% in experiment [5]; 96.7% in experiment [6]. Moreover, the inhibition was determined as 39.2% in [7] and 56.7% in experiment [8].

As to `N#CC1(CNc2cccc(-c3cc(Nc4cnn(Cc5ccc(C(=O)Nc6ccccc6N)cc5)c4)ncc3Cl)n2)CCOCC1`, the inhibition was 49.8% in [1]; 3.35% in experiment [2]; 4.44% in experiment [3]; 9.96% in experiment [4]; 37.2% in experiment [5]; 23% in [6]. For the same molecule, the inhibition in experiment [7] is 3.11%; in [8] it was -3.19%. The inhibition entry in [9], in experiment [10], in experiment [11], in experiment [12], in experiment [13] and in experiment [14] was “inactive” throughout. The inhibition entry (in [15]; on Histone deacetylase 4; in [16]; in [17]; in [18]) was “inactive” throughout.

Take `COC[C@@H](C)N[C@H]1CC[C@H](Nc2cc(-c3cccc(NCC4(C#N)CCOCC4)n3)c(Cl)cn2)CC1`: the result in the experiment on MV4-11 was Active.
